Results as given in patent US20090012268A1 (B R A H M S, published 2009).

Biological target: human TSH receptor expressed on cells (human) (UniProt P16473)
Test: cell-based or functional assay

EC50 of cAMP accumulation in hTSHr-expressing CHO cells: 1 nM
maximum cAMP production in JP26 cells at a saturating concentration (100 mIU/ml): 280 pmol/mL
Substance: bovine TSH (from UniProt P01217 25-120; P01223 21-132) (ligand)
